EP4847505A1, “4-METHYLSULFONYL-SUBSTITUTED PIPERIDINE UREA COMPOUNDS” (dated 2026)

Chains of the proteins cited; added tags and fusions are not shown.
UniProt Q9BE39, whole entry: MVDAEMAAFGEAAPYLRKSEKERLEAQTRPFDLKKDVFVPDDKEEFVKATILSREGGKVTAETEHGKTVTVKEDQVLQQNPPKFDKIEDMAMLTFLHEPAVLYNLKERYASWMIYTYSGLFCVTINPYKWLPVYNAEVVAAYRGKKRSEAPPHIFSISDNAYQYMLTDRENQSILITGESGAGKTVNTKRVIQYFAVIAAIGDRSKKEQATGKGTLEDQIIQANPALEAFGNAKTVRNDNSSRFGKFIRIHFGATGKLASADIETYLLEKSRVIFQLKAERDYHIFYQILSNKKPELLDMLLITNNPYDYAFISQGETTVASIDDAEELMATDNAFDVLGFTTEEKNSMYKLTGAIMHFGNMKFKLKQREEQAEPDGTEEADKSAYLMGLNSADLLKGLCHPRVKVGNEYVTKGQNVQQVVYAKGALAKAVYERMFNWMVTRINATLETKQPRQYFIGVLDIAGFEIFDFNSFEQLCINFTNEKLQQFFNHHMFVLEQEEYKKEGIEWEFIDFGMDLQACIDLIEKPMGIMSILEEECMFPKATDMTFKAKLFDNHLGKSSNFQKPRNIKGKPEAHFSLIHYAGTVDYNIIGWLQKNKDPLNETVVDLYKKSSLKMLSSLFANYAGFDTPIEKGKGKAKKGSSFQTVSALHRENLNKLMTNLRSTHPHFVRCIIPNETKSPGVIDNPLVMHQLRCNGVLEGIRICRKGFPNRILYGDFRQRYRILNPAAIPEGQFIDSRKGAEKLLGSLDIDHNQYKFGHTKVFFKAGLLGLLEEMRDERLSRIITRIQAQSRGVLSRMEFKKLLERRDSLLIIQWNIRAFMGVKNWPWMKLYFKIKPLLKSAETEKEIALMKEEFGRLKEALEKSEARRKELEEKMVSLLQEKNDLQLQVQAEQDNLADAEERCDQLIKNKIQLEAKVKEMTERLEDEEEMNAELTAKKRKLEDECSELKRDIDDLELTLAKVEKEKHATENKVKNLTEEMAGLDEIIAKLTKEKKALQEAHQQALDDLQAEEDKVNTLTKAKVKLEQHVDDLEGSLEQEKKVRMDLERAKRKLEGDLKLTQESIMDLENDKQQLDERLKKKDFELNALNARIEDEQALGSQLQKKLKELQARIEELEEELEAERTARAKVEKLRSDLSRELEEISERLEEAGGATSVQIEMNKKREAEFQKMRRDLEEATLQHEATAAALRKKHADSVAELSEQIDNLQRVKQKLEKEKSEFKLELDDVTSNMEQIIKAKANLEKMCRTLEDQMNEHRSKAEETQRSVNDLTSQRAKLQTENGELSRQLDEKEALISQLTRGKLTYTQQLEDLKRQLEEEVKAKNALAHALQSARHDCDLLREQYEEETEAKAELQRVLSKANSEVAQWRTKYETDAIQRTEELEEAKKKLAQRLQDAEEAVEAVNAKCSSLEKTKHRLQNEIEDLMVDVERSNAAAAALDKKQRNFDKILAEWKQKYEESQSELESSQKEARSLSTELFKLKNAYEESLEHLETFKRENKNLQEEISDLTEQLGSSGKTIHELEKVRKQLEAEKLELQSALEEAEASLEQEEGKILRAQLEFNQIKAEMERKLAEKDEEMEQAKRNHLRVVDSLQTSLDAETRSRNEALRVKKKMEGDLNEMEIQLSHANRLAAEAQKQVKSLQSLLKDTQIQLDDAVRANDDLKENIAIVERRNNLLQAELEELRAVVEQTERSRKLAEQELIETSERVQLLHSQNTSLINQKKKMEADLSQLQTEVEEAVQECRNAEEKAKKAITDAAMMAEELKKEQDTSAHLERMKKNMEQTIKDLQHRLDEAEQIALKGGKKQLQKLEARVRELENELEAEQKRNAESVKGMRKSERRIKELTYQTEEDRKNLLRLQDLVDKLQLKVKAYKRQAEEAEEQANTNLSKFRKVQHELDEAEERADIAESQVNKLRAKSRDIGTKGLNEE
UniProt Q3SZE5, whole entry partner: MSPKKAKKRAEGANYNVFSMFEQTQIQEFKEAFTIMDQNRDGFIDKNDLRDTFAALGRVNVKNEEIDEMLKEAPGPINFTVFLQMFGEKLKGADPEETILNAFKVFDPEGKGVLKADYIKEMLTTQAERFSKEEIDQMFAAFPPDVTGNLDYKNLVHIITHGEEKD
UniProt P85100, whole entry partner: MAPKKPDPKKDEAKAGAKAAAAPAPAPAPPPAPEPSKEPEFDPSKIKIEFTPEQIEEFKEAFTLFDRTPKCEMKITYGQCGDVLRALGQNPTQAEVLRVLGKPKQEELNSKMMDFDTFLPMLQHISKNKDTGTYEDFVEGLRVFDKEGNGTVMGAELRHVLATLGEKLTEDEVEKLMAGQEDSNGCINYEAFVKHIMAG

biological target: bovine cardiac myosin (Bos taurus, UniProt Q9BE39); test: Myosin activation assay (PK/LDH-coupled ATPase, bovine cardiac myofibrils); details: concentration at which the total response is increased by twenty percent

Row | Compound | Myosin Activation (AC20)
1 | Cn1cnc(S(=O)(=O)C2(C3CCN(C(=O)Nc4ccnnc4)CC3)CCC2)c1 | + (+ represents myosin activation value AC20 > 5 µM)
2 | Cn1cc(S(=O)(=O)[C@@](C)(F)C2CCN(C(=O)Nc3ccnc(C#N)c3)CC2)c(C(F)F)n1 | ++ (++ represents myosin activation value AC20 from 2 µM - 5 µM)
3 | Cn1cc(S(=O)(=O)C(F)(F)C2CCN(C(=O)Nc3ccnc(CO)c3)CC2)c(C(F)F)n1 | ++ (++ represents myosin activation value AC20 from 2 µM - 5 µM)
4 | CC(F)(C1CCN(C(=O)Nc2ccon2)CC1)S(=O)(=O)c1cccc(C#N)c1 (stereo not drawn) | ++ (++ represents myosin activation value AC20 from 2 µM - 5 µM)
5 | O=C(Nc1ccnnc1)N1CCC(C(F)(F)S(=O)(=O)c2ccc(O)cc2Cl)CC1 | ++ (++ represents myosin activation value AC20 from 2 µM - 5 µM)
6 | Cn1cc(S(=O)(=O)[C@@](C)(F)C2CCN(C(=O)Nc3ccc(C#N)nc3)CC2)c(C(F)F)n1 | +++ (+++ represents myosin activation value AC20 < 2 µM)
7 | Cc1ccc(NC(=O)N2CCC(C(F)(F)S(=O)(=O)c3cn(C)nc3C(F)F)CC2)cn1 | + (+ represents myosin activation value AC20 > 5 µM)
8 | CC(C)(C1CCN(C(=O)Nc2ccncc2)CC1)S(=O)(=O)c1cccc(F)c1 | +++ (+++ represents myosin activation value AC20 < 2 µM)
9 | CC(F)(C1CCN(C(=O)Nc2ccc(F)nc2)CC1)S(=O)(=O)c1ccc(C(F)(F)F)cc1 (stereo not drawn) | ++ (++ represents myosin activation value AC20 from 2 µM - 5 µM)
10 | O=C(Nc1ccnnc1)N1CCC(C(F)(F)S(=O)(=O)c2ccccc2-n2cncn2)CC1 | ++ (++ represents myosin activation value AC20 from 2 µM - 5 µM)
11 | C[C@@](F)(C1CCN(C(=O)Nc2ccon2)CC1)S(=O)(=O)c1ccc(OC(F)F)nc1 | + (+ represents myosin activation value AC20 > 5 µM)
12 | Cn1cc(S(=O)(=O)C(C)(F)C2CCN(C(=O)Nc3ccon3)CC2)c(C(F)(F)F)n1 (stereo not drawn) | ++ (++ represents myosin activation value AC20 from 2 µM - 5 µM)
13 | Cc1cnccc1S(=O)(=O)C(F)(F)C1CCN(C(=O)Nc2ccnnc2)CC1 | ++ (++ represents myosin activation value AC20 from 2 µM - 5 µM)
14 | Cc1cc(OC(F)(F)F)ccc1S(=O)(=O)C(F)(F)C1CCN(C(=O)Nc2ccnnc2)CC1 | ++ (++ represents myosin activation value AC20 from 2 µM - 5 µM)
15 | Cc1cc(NC(=O)N2CCC(C(C)(F)S(=O)(=O)c3cccc(F)c3)CC2)cnn1 (stereo not drawn) | + (+ represents myosin activation value AC20 > 5 µM)
16 | Cn1cc(S(=O)(=O)C(C)(C)C2CCN(C(=O)Nc3cccnc3)CC2)c(C(F)F)n1 | +++ (+++ represents myosin activation value AC20 < 2 µM)
17 | CCC(F)(C1CCN(C(=O)Nc2ccnnc2)CC1)S(=O)(=O)c1cccc(F)c1 (stereo not drawn) | ++ (++ represents myosin activation value AC20 from 2 µM - 5 µM)
18 | C[C@](F)(C1CCN(C(=O)Nc2ccnc(CO)c2)CC1)S(=O)(=O)c1cccc(F)c1 | +++ (+++ represents myosin activation value AC20 < 2 µM)
19 | CC(C)(C1CCN(C(=O)Nc2ccon2)CC1)S(=O)(=O)c1cccc(C#N)c1 | ++ (++ represents myosin activation value AC20 from 2 µM - 5 µM)

Row | Compound | Myosin Activation (AC20)
20 | C[C@@H](O)c1cc(NC(=O)N2CCC(C(F)(F)S(=O)(=O)c3cn(C)nc3C(F)F)CC2)ccn1 | + (+ represents myosin activation value AC20 > 5 µM)
21 | 4-(1-Fluoro-1-((3-fluorophenyl)sulfonyl)ethyl)-N-(1H-pyrazol-4-yl)piperidine-1-carboxamide | ++ (++ represents myosin activation value AC20 from 2 µM - 5 µM)
22 | CC(C)(C1CCN(C(=O)Nc2ccncc2)CC1)S(=O)(=O)c1ccccc1C#N | ++ (++ represents myosin activation value AC20 from 2 µM - 5 µM)
23 | Cc1cc(C#N)ccc1S(=O)(=O)C(C)(C)C1CCN(C(=O)Nc2ccnnc2)CC1 | ++ (++ represents myosin activation value AC20 from 2 µM - 5 µM)
24 | CC(C)(C1CCN(C(=O)Nc2ccnnc2)CC1)S(=O)(=O)c1ccc(C(F)(F)F)cc1 | ++ (++ represents myosin activation value AC20 from 2 µM - 5 µM)
25 | Cn1nc(Cl)cc1S(=O)(=O)C(C)(C)C1CCN(C(=O)Nc2ccnc(F)c2)CC1 | ++ (++ represents myosin activation value AC20 from 2 µM - 5 µM)
26 | C[C@H](O)c1cc(NC(=O)N2CCC([C@@](C)(F)S(=O)(=O)c3cn(C)nc3C(F)F)CC2)ccn1 | + (+ represents myosin activation value AC20 > 5 µM)
27 | CC(F)(C1CCN(C(=O)Nc2ccon2)CC1)S(=O)(=O)c1ccc(C#N)cc1 (stereo not drawn) | ++ (++ represents myosin activation value AC20 from 2 µM - 5 µM)
28 | Cc1cnccc1NC(=O)N1CCC(C(C)(C)S(=O)(=O)c2cccc(F)c2)CC1 | + (+ represents myosin activation value AC20 > 5 µM)
29 | C[C@](F)(C1CCN(C(=O)Nc2ccon2)CC1)S(=O)(=O)c1cccc(F)c1 | +++ (+++ represents myosin activation value AC20 < 2 µM)
30 | Cc1ccc(S(=O)(=O)CC2CCN(C(=O)Nc3ccncc3)CC2)cc1 | + (+ represents myosin activation value AC20 > 5 µM)
31 | CC(F)(C1CCN(C(=O)Nc2ccc(F)nc2)CC1)S(=O)(=O)c1cccc(C#N)c1 (stereo not drawn) | + (+ represents myosin activation value AC20 > 5 µM)
32 | C[C@@H](O)c1cc(NC(=O)N2CCC([C@](C)(F)S(=O)(=O)c3cccc(F)c3)CC2)ccn1 | + (+ represents myosin activation value AC20 > 5 µM)
33 | Cc1cc(S(=O)(=O)C(F)(F)C2CCN(C(=O)Nc3ccnnc3)CC2)n(C)n1 | ++ (++ represents myosin activation value AC20 from 2 µM - 5 µM)
34 | O=C(Nc1cnns1)N1CCC(C(F)(F)S(=O)(=O)c2ccc(C(F)(F)F)cc2)CC1 | ++ (++ represents myosin activation value AC20 from 2 µM - 5 µM)
35 | CC(F)(C1CCN(C(=O)Nc2ccnnc2)CC1)S(=O)(=O)c1cc(F)cc(F)c1 (stereo not drawn) | +++ (+++ represents myosin activation value AC20 < 2 µM)
36 | C[C@](F)(C1CCN(C(=O)Nc2cnc3c(c2)CNC3=O)CC1)S(=O)(=O)c1cccc(F)c1 | ++ (++ represents myosin activation value AC20 from 2 µM - 5 µM)
37 | CC(C)(C1CCN(C(=O)Nc2ccon2)CC1)S(=O)(=O)c1ccc(C(F)(F)F)nc1 | + (+ represents myosin activation value AC20 > 5 µM)
38 | O=C(Nc1ccnnc1)N1CCC(C(F)(F)S(=O)(=O)c2ccc3ccnn3c2)CC1 | ++ (++ represents myosin activation value AC20 from 2 µM - 5 µM)

Row | Compound | Myosin Activation (AC20)
39 | Cn1cc(S(=O)(=O)C(F)(F)C2CCN(C(=O)Nc3ccnc(F)c3)CC2)c(C(F)F)n1 | + (+ represents myosin activation value AC20 > 5 µM)
40 | O=C(Nc1ccns1)N1CCC(C2(S(=O)(=O)c3cc(F)cc(F)c3)CC2)CC1 | +++ (+++ represents myosin activation value AC20 < 2 µM)
41 | Cn1cc(S(=O)(=O)[C@](C)(F)C2CCN(C(=O)Nc3ccon3)CC2)c(C(F)F)n1 | + (+ represents myosin activation value AC20 > 5 µM)
42 | Cn1nccc1S(=O)(=O)C(C)(C)C1CCN(C(=O)Nc2ccnnc2)CC1 | +++ (+++ represents myosin activation value AC20 < 2 µM)
43 | Cn1nccc1S(=O)(=O)C(C)(C)C1CCN(C(=O)Nc2ccncc2)CC1 | ++ (++ represents myosin activation value AC20 from 2 µM - 5 µM)
44 | Cn1cc(S(=O)(=O)C(C)(C)C2CCN(C(=O)Nc3ccnnc3)CC2)c(Cl)n1 | ++ (++ represents myosin activation value AC20 from 2 µM - 5 µM)
45 | CC(F)(C1CCN(C(=O)Nc2ccnnc2)CC1)S(=O)(=O)c1cccc(C#N)c1 (stereo not drawn) | +++ (+++ represents myosin activation value AC20 < 2 µM)
46 | O=C(Nc1ccnnc1)N1CCC(C2(S(=O)(=O)c3cccc(F)c3)CC(F)(F)C2)CC1 | ++ (++ represents myosin activation value AC20 from 2 µM - 5 µM)
47 | CC(F)(C1CCN(C(=O)Nc2ccon2)CC1)S(=O)(=O)c1cccc(F)c1 (stereo not drawn) | +++ (+++ represents myosin activation value AC20 < 2 µM)
48 | C[C@@](F)(C1CCN(C(=O)Nc2ccon2)CC1)S(=O)(=O)c1ccc(C(F)(F)F)nc1 | + (+ represents myosin activation value AC20 > 5 µM)
49 | CC(C)(C1CCN(C(=O)Nc2ccnnc2)CC1)S(=O)(=O)c1ccccc1Cl | +++ (+++ represents myosin activation value AC20 < 2 µM)
50 | Cn1ncc2c(S(=O)(=O)C(F)(F)C3CCN(C(=O)Nc4ccnnc4)CC3)cccc21 | ++ (++ represents myosin activation value AC20 from 2 µM - 5 µM)
51 | CCn1nccc1S(=O)(=O)C(C)(C)C1CCN(C(=O)Nc2ccncc2)CC1 | ++ (++ represents myosin activation value AC20 from 2 µM - 5 µM)
52 | Cn1cc(NC(=O)N2CCC(C(C)(C)S(=O)(=O)c3cccc(F)c3)CC2)cn1 | + (+ represents myosin activation value AC20 > 5 µM)
53 | CC(C)(C1CCN(C(=O)Nc2ccnnc2)CC1)S(=O)(=O)c1ccc(C(F)(F)F)nc1 | ++ (++ represents myosin activation value AC20 from 2 µM - 5 µM)
54 | Cn1nc(C(C)(C)C)cc1S(=O)(=O)C(F)(F)C1CCN(C(=O)Nc2ccnnc2)CC1 | + (+ represents myosin activation value AC20 > 5 µM)
55 | Cc1ccccc1S(=O)(=O)C1(C2CCN(C(=O)Nc3ccncc3)CC2)CC1 | +++ (+++ represents myosin activation value AC20 < 2 µM)
56 | O=C(Nc1ccnnc1)N1CCC(C(F)(F)S(=O)(=O)c2ccc(O)nc2)CC1 | + (+ represents myosin activation value AC20 > 5 µM)
57 | Cn1nc(C(F)(F)F)cc1S(=O)(=O)C(C)(C)C1CCN(C(=O)Nc2ccnc(F)c2)CC1 | ++ (++ represents myosin activation value AC20 from 2 µM - 5 µM)
